Measurements from PubChem BioAssay (NCI).
Where “and” joins values, the source holds several entries; their conditions need not be identical. Equal entries are not always repeated. The entries are a selection whose mix differs from that of the whole data set.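 Cells were grown in 96-well plates and exposed to the test compound at a single concentration for 48 hours; results are reported as percent growth, with values below 10 considered active.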 Calls of active or inactive are those of the source.

Experiments:
Assay in all cases: NCI-60 one-dose screen, 48 h (100 = growth as untreated, 0 = no growth, -100 = all killed)
Conditions in all cases: 10 µM
[1] = test system: DU-145 prostate
[2] = test system: K-562 leukemia
[3] = test system: MALME-3M melanoma
[4] = test system: MDA-MB-231 breast
[5] = test system: RXF 393 renal
[6] = test system: SF-268 CNS
[7] = test system: SF-295 CNS
[8] = test system: SF-539 CNS
[9] = test system: UACC-257 melanoma
[10] = test system: M14 melanoma
[11] = test system: HCT-15 colon
[12] = test system: HT29 colon
[13] = test system: SNB-75 CNS
[14] = test system: SNB-19 CNS
[15] = test system: U251 CNS
[16] = test system: PC-3 prostate
[17] = test system: SK-MEL-5 melanoma
[18] = test system: UACC-62 melanoma
[19] = test system: LOX IMVI melanoma
[20] = test system: SK-MEL-28 melanoma

Measured: growth

CCN(CC)CCOC(=O)C(O)(c1cc(C)cc(C)c1)c1cc(C)cc(C)c1
inactive: [1] 107% | [2] 97.9% | [3] 111% | [4] 98% | [5] 108% | [6] 103% | [7] 91.1% | [8] 97.1% | [9] 86.6% | [10] 102% | [11] 104% | [12] 92% | [13] 94.7% | [14] 98.6% | [15] 89.9% | [16] 92.3% | [17] 97.7% | [18] 92.8% | [19] 101% | [20] 106%

O=[N+]([O-])OCC(O[N+](=O)[O-])C(CO[N+](=O)[O-])O[N+](=O)[O-] (stereo not given)
inactive: [1] 114% | [2] 101% | [3] 114% | [4] 125% | [5] 118% | [6] 105% | [7] 121% | [8] 103% | [9] 131% | [10] 108% | [11] 105% | [12] 120% | [13] 115% | [14] 112% | [15] 120% | [16] 99.7% | [17] 116% | [18] 108% | [19] 99.9% | [20] 115%

CC(C)N(CCCl)C(C)C
inactive: [1] 108% | [2] 115% | [3] 120% | [4] 108% | [5] 104% | [6] 110% | [7] 115% | [8] 112% | [9] 96.1% | [10] 106% | [11] 107% | [12] 116% | [13] 107% | [14] 110% | [15] 91.3% | [16] 96% | [17] 102% | [18] 104% | [19] 93.1% | [20] 116%

CCOC(=O)Nc1c([N+](=O)[O-])cc([N+](=O)[O-])cc1[N+](=O)[O-]
inactive: [1] 105% | [2] 72.7% | [3] 103% | [4] 97.1% | [5] 114% | [6] 101% | [7] 110% | [8] 102% | [9] 90.2% | [10] 96.9% | [11] 89.1% | [12] 111% | [13] 103% | [14] 114% | [15] 98.9% | [16] 88.6% | [17] 95.4% | [18] 94.7% | [19] 85.6% | [20] 111%

CCN(CC)CCOC(=O)C(O)(c1ccccc1)c1cc(C)c(C)c(C)c1C (stereo not given)
inactive: [1] 100% | [2] 81.7% | [3] 107% | [4] 81.8% | [5] 79.2% | [6] 96.1% | [7] 109% | [8] 94.2% | [9] 92.5% | [10] 92.4% | [11] 96.7% | [12] 79.9% | [13] 45.5% | [14] 99.6% | [15] 102% | [16] 82.1% | [17] 98.4% | [18] 98.3% | [19] 87.9% | [20] 108%

Cc1c([N+](=O)[O-])c(C)c([N+](=O)[O-])c(C)c1[N+](=O)[O-]
inactive: [1] 109% | [2] 94.3% | [3] 117% | [4] 113% | [5] 127% | [6] 97.2% | [7] 104% | [8] 108% | [9] 118% | [10] 110% | [11] 96.3% | [12] 109% | [13] 93.6% | [14] 100% | [15] 103% | [16] 99.6% | [17] 116% | [18] 102% | [19] 97.1% | [20] 104%

O=C1C(O)=C([N+](=O)[O-])C(=O)C(O)=C1[N+](=O)[O-]
inactive: [1] 108% | [2] 108% | [3] 98% | [4] 110% | [5] 115% | [6] 99.8% | [7] 112% | [8] 98.5% | [9] 109% | [10] 108% | [11] 100% | [12] 106% | [13] 102% | [14] 108% | [15] 109% | [16] 98.8% | [17] 106% | [18] 95.3% | [19] 101% | [20] 111%

COc1ccccc1-c1ccccn1.O=[N+]([O-])c1cc([N+](=O)[O-])c(O)c([N+](=O)[O-])c1
inactive: [1] 111% | [2] 107% | [3] 107% | [4] 101% | [5] 96.1% | [6] 112% | [7] 71.5% | [8] 93.7% | [9] 105% | [10] 101% | [11] 103% | [12] 102% | [13] 102% | [14] 100% | [15] 102% | [16] 95.6% | [17] 99.3% | [18] 105% | [19] 108% | [20] 102%

CN(CCO)CCCl.O=[N+]([O-])c1cc([N+](=O)[O-])c(O)c([N+](=O)[O-])c1
inactive: [1] 105% | [2] 103% | [3] 97.6% | [4] 105% | [5] 105% | [6] 102% | [7] 103% | [8] 98.7% | [9] 95.3% | [10] 102% | [11] 95.6% | [12] 99.8% | [13] 96.2% | [14] 101% | [15] 96.8% | [16] 91.9% | [17] 99.4% | [18] 89.5% | [19] 97% | [20] 103%

O=[N+]([O-])c1cc([N+](=O)[O-])c(O)c([N+](=O)[O-])c1.c1ccc(Cc2ccncc2)cc1
inactive: [1] 108% | [2] 99% | [3] 114% | [4] 106% | [5] 100% | [6] 95.8% | [7] 94.6% | [8] 91.7% | [9] 96.9% | [10] 106% | [11] 104% | [12] 106% | [13] 88.1% | [14] 104% | [15] 98.8% | [16] 93.2% | [17] 98.7% | [18] 104% | [19] 102% | [20] 107%

CP(=O)(OCCCl)N(CCCl)CCCl (stereo not given)
inactive: [1] 107% | [2] 84.9% | [3] 100% | [4] 120% | [5] 104% | [6] 103% | [7] 93.3% | [8] 85.8% | [9] 101% | [10] 95.7% | [11] 89.9% | [12] 79.2% | [13] 88.1% | [14] 102% | [15] 104% | [16] 101% | [17] 101% | [18] 104% | [19] 106% | [20] 102%

O=[N+]([O-])c1cc([N+](=O)[O-])c(Oc2ccccc2)c([N+](=O)[O-])c1
inactive: [1] 103% | [2] 92.2% | [3] 109% | [4] 106% | [5] 116% | [6] 103% | [7] 91.2% | [8] 122% | [9] 99.5% | [10] 105% | [11] 102% | [12] 97.5% | [13] 102% | [14] 103% | [15] 93.3% | [16] 99.2% | [17] 108% | [18] 103% | [19] 92.7% | [20] 110%

CN(Cc1cccnc1)C(=O)COc1ccc(Cl)c(Cl)c1.O=[N+]([O-])c1cc([N+](=O)[O-])c(O)c([N+](=O)[O-])c1
inactive: [1] 113% | [2] 96.6% | [3] 99.3% | [4] 114% | [5] 92.1% | [6] 101% | [7] 85.2% | [8] 98.6% | [9] 94.5% | [10] 104% | [11] 110% | [12] 105% | [13] 80.5% | [14] 95.6% | [15] 94% | [16] 93.5% | [17] 99.4% | [18] 103% | [19] 102% | [20] 110%

CCCCCCCOP(=O)(CC)OCCCCCCC
inactive: [1] 107% | [2] 90.2% | [3] 99% | [4] 93.2% | [5] 101% | [6] 106% | [7] 92.4% | [8] 99.8% | [9] 94.8% | [10] 103% | [11] 104% | [12] 103% | [13] 80.4% | [14] 95.1% | [15] 99.7% | [16] 97.6% | [17] 99.9% | [18] 96.3% | [19] 94.5% | [20] 100%

Nc1cc([N+](=O)[O-])cc([N+](=O)[O-])c1O
inactive: [1] 113% and 108% | [2] 111% and 98.8% | [3] 123% and 104% | [4] 104% and 106% | [5] 116% and 107% | [6] 98% and 102% | [7] 101% | [8] 96.2% and 101% | [9] 98.8% and 91% | [10] 102% | [11] 98.3% and 99.6% | [12] 107% and 99.3% | [13] 94.4% and 88% | [14] 88.3% and 108% | [15] 100% and 97.7% | [16] 100% and 79.4% | [17] 111% and 97.2% | [18] 96.5% and 105% | [19] 99.6% and 97.2% | [20] 108% and 110%
